# In USRE37793E1, “Method and composition for inhibiting bacteria” (Winthrop University Hospital, priority 1995, dated 2002):
# How the values were obtained:
# [1] = system: Swiss-Webster female mice; settings: mouse, in vivo
# [2] = system: Swiss-Webster female mice; settings: mouse, in vivo; remark: listed apart in the source
substance,measurement,setting,value
bismuth nitrate [Bi(NO3)3],IP LD50,[1],53 ± 13 mg/kg
same,LD50,[1]; ip,52±13 mgBi^3+/kg
same,Oral LD50,[2],>357 mg/kg
